# Data as given in ChEMBL document CHEMBL5385907, “Proline-Hinged α-Helical Peptides Sensitize Gram-Positive Antibiotics, Expanding Their Physicochemical Properties to Be Used as Gram-Negative Antibiotics” (J Med Chem, 2024).
# How the values were obtained:
# Escherichia coli [1] = test: Antibacterial activity against Escherichia coli ATCC 25922 assessed as inhibition of bacterial growth incubated for 18 hrs by two fold serial dilution assay; type: functional
# Acinetobacter baumannii [2] = test: Antibacterial activity against Acinetobacter baumannii ATCC 17978 assessed as inhibition of bacterial growth incubated for 18 hrs by two fold serial dilution assay; type: functional
# Klebsiella pneumoniae [3] = test: Antibacterial activity against Klebsiella pneumoniae ATCC 700603 assessed as inhibition of bacterial growth incubated for 18 hrs by two fold serial dilution assay; type: functional
# [4] = Hemolytic activity in human blood assessed as hemolysis incubated for 6 hrs by microplate reader analysis; type: toxicity, tissue-based
# [5] = Hydrophobicity of the compound assessed as retention time by reversed-phase HPLC analysis; type: physicochemical
# Escherichia coli [6] = test: Potentiation of erythromycin induced antibacterial activity against Escherichia coli ATCC 25922 assessed as decrease in bacterial growth at 0.4 uM incubated for 18 hrs in presence of erythromycin by two fold serial dilution assay; type: functional, organism-based
# Escherichia coli [7] = test: Potentiation of fusidic acid induced antibacterial activity against Escherichia coli ATCC 25922 assessed as decrease in bacterial growth at 0.4 uM incubated for 18 hrs in presence of fusidic acid by two fold serial dilution assay; type: functional, organism-based
# Escherichia coli [8] = test: Potentiation of novobiocin induced antibacterial activity against Escherichia coli ATCC 25922 assessed as decrease in bacterial growth at 0.4 uM incubated for 18 hrs in presence of novobiocin by two fold serial dilution assay; type: functional, organism-based
# Acinetobacter baumannii [9] = test: Potentiation of erythromycin induced antibacterial activity against Acinetobacter baumannii ATCC 17978 assessed as decrease in bacterial growth at 0.4 uM incubated for 18 hrs in presence of erythromycin by two fold serial dilution assay; type: functional, organism-based
# Acinetobacter baumannii [10] = test: Potentiation of fusidic acid induced antibacterial activity against Acinetobacter baumannii ATCC 17978 assessed as decrease in bacterial growth at 0.4 uM incubated for 18 hrs in presence of fusidic acid by two fold serial dilution assay; type: functional, organism-based
# Acinetobacter baumannii [11] = test: Potentiation of novobiocin induced antibacterial activity against Acinetobacter baumannii ATCC 17978 assessed as decrease in bacterial growth at 0.4 uM incubated for 18 hrs in presence of novobiocin by two fold serial dilution assay; type: functional, organism-based
# Klebsiella pneumoniae [12] = test: Potentiation of erythromycin induced antibacterial activity against Klebsiella pneumoniae ATCC 700603 assessed as decrease in bacterial growth at 0.4 uM incubated for 18 hrs in presence of erythromycin by two fold serial dilution assay; type: functional, organism-based
# Klebsiella pneumoniae [13] = test: Potentiation of fusidic acid induced antibacterial activity against Klebsiella pneumoniae ATCC 700603 assessed as decrease in bacterial growth at 0.4 uM incubated for 18 hrs in presence of fusidic acid by two fold serial dilution assay; type: functional, organism-based
# Klebsiella pneumoniae [14] = test: Potentiation of novobiocin induced antibacterial activity against Klebsiella pneumoniae ATCC 700603 assessed as decrease in bacterial growth at 0.4 uM incubated for 18 hrs in presence of novobiocin by two fold serial dilution assay; type: functional, organism-based
smiles,measurement,setting,value
CC(=O)N[C@@H](CCCCN)C(=O)N[C@@H](CCCCN)C(=O)N[C@@H](CC(C)C)C(=O)N[C@@H](CC(C)C)C(=O)N[C@@H](CCCCN)C(=O)N[C@@H](C)C(=O)N[C@@H](CC(C)C)C(=O)N[C@@H](CCCCN)C(=O)N[C@@H](CCCCN)C(=O)N1CCC[C@H]1C(=O)N[C@@H](CC(C)C)C(=O)N[C@@H](CCCCN)C(=O)N[C@@H](CC(C)C)C(=O)N[C@@H](CC(C)C)C(=O)N[C@@H](CCCCN)C(N)=O,MIC,Escherichia coli [1],> 80 µM
same,MIC,Acinetobacter baumannii [2],40 µM
same,MIC,Klebsiella pneumoniae [3],> 80 µM
same,MHC10,[4],> 160 µM
same,Retention_time,[5],16.7 min
same,Activity,Escherichia coli [6],Active
same,Activity,Escherichia coli [7],Active
same,Activity,Escherichia coli [8],Active
same,Activity,Acinetobacter baumannii [9],Active
same,Activity,Acinetobacter baumannii [10],Active
same,Activity,Acinetobacter baumannii [11],Active
same,Activity,Klebsiella pneumoniae [12],Active
same,Activity,Klebsiella pneumoniae [13],Active
same,Activity,Klebsiella pneumoniae [14],Active

# The source made the active and inactive calls. The rule behind the calls is not given here.
